The values that follow are results of earlier work, collected in PMC12275124.

Sequences of proteins named here, by UniProt entry; tags and fusion partners are left off. Residues count along the entry.
UniProt Q99570, 327-860: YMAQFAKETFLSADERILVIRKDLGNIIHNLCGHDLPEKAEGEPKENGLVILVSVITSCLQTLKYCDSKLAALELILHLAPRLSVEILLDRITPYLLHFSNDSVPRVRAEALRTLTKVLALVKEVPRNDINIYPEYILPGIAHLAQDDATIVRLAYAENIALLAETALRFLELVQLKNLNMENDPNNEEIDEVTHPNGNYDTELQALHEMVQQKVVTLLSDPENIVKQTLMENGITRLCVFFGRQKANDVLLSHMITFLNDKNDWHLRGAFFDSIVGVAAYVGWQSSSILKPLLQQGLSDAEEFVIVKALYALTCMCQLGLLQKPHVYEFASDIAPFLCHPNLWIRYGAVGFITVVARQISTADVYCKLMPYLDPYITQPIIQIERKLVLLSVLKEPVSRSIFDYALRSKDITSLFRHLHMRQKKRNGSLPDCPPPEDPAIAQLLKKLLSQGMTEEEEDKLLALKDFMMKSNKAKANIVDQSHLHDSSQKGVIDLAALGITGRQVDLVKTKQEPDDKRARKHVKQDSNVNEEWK

The data set addresses NRBF2 (Homo sapiens) (UniProt Q96F24).

Usually Kd stands for a measure of binding affinity in units of concentration. For VPS15 HSD (from UniProt Q99570), the dissociation constant Kd was 40 nM.
